Sequences of proteins named here, by UniProt entry; tags and fusion partners are left off. A change or cut given only in a name is not applied to a line headed by its entry.
UniProt P80299: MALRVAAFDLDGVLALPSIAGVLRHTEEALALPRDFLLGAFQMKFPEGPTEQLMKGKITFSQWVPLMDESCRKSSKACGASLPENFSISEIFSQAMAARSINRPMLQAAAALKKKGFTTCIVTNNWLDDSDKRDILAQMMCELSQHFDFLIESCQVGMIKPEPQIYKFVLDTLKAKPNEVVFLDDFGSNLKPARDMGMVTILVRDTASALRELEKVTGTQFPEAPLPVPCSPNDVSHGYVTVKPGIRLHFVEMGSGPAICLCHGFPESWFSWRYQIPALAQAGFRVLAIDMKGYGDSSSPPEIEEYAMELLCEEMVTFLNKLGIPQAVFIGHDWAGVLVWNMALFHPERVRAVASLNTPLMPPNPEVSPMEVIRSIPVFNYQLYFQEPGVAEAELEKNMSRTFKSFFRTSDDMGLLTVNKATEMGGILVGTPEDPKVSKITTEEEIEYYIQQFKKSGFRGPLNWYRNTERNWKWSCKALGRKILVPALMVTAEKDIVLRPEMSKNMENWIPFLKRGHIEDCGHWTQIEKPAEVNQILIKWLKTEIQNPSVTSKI

According to PMC3578047 (European journal of pharmacology, 2012):

Biological target: recombinant rat sEH (Rattus norvegicus, UniProt P80299)
Assay type: biochemical

## CC(=O)N1CCC(NC(=O)NC23CC4CC(CC(C4)C2)C3)CC1 [APAU, 1-(1-acetypiperidin-4-yl)-3-adamantanylurea]
  off rate from the enzyme: much slower off rate from the rat recombinant sEH than corresponding mouse or human enzyme
